Laboratory results reported in PubChem BioAssay (EPA / NIEHS).
This is a selection; strong and weak results do not stand in their true shares. Inconclusive results are not listed. Activity calls are given as the source filed them. Rule for the calls, unless noted: active = hit-call score of the fitted dose curve at least 0.9, where 1 is the maximum; inactive = score below 0.9.

The chains behind the UniProt entries cited, without tags or fusion partners.
UniProt P16581, whole entry: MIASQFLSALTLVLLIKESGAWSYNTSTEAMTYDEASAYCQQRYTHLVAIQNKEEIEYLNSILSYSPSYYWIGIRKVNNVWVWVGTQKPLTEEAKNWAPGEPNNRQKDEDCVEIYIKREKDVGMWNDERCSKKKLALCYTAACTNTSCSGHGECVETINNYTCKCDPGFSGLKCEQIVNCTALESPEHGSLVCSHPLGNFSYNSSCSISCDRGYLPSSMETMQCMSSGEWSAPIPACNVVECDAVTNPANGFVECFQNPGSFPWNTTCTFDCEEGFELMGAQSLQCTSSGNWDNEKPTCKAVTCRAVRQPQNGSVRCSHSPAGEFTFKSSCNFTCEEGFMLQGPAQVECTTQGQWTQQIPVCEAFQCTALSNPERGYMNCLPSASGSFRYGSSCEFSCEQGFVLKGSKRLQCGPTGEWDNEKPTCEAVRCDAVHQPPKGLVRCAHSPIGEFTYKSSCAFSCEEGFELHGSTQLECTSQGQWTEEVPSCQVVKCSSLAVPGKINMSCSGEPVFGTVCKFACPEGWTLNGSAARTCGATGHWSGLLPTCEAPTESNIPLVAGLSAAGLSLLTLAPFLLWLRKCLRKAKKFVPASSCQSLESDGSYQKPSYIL
UniProt P35372, whole entry: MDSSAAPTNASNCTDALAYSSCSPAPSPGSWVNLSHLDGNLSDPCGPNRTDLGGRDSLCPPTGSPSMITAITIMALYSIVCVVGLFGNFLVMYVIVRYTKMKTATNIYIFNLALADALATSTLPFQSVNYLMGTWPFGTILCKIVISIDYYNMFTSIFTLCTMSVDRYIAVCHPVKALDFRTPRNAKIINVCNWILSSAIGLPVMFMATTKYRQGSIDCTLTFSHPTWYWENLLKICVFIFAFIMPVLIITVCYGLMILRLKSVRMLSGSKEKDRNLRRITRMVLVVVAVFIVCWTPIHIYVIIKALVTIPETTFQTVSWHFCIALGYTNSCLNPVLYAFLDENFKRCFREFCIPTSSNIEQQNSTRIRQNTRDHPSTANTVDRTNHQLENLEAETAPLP
UniProt P10275, whole entry: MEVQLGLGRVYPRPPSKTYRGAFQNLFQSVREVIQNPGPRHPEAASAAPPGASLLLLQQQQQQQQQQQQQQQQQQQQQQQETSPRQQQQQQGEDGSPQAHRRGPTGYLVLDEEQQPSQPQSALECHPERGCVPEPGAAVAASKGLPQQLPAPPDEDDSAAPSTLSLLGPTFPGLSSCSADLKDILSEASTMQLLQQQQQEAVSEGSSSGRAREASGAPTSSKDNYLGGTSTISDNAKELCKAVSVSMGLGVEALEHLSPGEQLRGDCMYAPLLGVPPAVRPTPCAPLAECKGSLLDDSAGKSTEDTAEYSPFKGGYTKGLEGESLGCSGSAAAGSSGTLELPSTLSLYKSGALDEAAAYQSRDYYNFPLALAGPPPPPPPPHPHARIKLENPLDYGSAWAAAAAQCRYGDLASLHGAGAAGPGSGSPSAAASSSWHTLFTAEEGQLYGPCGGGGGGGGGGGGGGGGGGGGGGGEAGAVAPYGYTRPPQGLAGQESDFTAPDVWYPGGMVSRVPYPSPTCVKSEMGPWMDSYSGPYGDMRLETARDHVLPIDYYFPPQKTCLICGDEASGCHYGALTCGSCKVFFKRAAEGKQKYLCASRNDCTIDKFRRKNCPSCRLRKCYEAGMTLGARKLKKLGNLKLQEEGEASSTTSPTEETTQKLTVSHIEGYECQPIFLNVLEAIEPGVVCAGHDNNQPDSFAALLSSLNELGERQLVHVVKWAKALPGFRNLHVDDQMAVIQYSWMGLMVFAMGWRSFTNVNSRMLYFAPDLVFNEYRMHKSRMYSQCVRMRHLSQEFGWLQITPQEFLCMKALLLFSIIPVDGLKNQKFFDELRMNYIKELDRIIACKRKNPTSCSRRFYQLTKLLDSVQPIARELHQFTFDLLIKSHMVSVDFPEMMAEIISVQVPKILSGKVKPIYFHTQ
UniProt P08684, whole entry: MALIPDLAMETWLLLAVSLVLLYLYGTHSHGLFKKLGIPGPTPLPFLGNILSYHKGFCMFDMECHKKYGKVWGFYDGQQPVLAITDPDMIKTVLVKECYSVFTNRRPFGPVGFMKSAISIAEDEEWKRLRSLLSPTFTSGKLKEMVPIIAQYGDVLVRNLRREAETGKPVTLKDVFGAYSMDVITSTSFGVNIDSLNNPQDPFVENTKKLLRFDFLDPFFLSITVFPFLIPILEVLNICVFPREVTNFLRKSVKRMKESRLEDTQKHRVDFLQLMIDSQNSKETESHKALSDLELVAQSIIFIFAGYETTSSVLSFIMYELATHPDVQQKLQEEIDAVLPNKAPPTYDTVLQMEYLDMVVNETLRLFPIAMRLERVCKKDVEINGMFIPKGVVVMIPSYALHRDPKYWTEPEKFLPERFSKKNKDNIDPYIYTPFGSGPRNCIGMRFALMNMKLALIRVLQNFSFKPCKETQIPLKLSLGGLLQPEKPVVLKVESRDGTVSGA

Columns and labels:
[1] = BSK_LPS_SRB: Viability Assessment in the BioMAP Diversity Plus: LPS Assay (AID 2283079); conditions: primary human HUVEC with PBMC;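 note: total protein by sulforhodamine B absorbance as a cytotoxicity measure; measured one day after compound addition; fitted in both directions against DMSO so loss or gain of signal counts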
How it was run: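 HUVEC + PBMC co-culture, LPS-stimulated; compound 24 h. 10% TCA fix, 0.1% SRB stain, A560. Bidirectional fit vs DMSO.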

[2] = read-out: Interleukin-1 alpha (IL1a), IL1A (gene 3552); assay: BSK_LPS_IL1a: BioMAP Diversity Plus: LPS Assay for Interleukin-1 alpha (IL1a) Biomarker Activity (AID 2283080); conditions: actives raise or lower the signal; primary human HUVEC with PBMC
How it was run: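 HUVEC/PBMC co-culture, LPS system; 24 h after dosing; IL-1a by ELISA; gain or loss of signal fitted bidirectionally vs DMSO baseline.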

[3] = BSK_LPS_PGE2: BioMAP Diversity Plus: LPS Assay for Prostaglandin E2 (PGE2) Biomarker Activity (AID 2283082); conditions: actives raise or lower the signal; primary human HUVEC with PBMC;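 note: secreted prostaglandin E2 measured by ELISA in LPS-stimulated co-culture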
How it was run: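 HUVEC plus PBMC co-culture stimulated with LPS; secreted PGE2 quantified by ELISA 24 h after chemical dosing. Activity fitted bidirectionally against DMSO as negative control and baseline; parallel SRB total-protein staining served as cytotoxicity check.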

[4] = read-out: Macrophage colony-stimulating factor (MCSF), CSF1 (gene 1435); assay: BSK_LPS_MCSF: BioMAP Diversity Plus: LPS Assay for Macrophage colony-stimulating factor (MCSF) Biomarker Activity (AID 2283083); conditions: actives raise or lower the signal; primary human HUVEC with PBMC
How it was run: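 HUVEC + PBMC co-culture (human primary), 24 h post-dose; M-CSF by ELISA; gain/loss of signal fitted bidirectionally vs DMSO baseline.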

[5] = read-out: Tissue Factor, F3 (gene 2152); assay: BSK_LPS_TissueFactor: BioMAP Diversity Plus: LPS Assay for Tissue Factor Biomarker Activity (AID 2283084); conditions: actives raise or lower the signal; primary human HUVEC with PBMC
How it was run: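 HUVEC/PBMC co-culture, LPS-activated; CD142 ELISA read 24 h post-dose; bidirectional curve fit vs DMSO negative control.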

[6] = read-out: Vascular cell adhesion molecule 1 (VCAM1), VCAM1 (gene 7412); assay: BSK_LPS_VCAM1: BioMAP Diversity Plus: LPS Assay for Vascular cell adhesion molecule 1 (VCAM1) Biomarker Activity (AID 2283086); conditions: actives raise or lower the signal; primary human HUVEC with PBMC
How it was run: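 Human umbilical vein endothelial cells co-cultured with peripheral blood mononuclear cells under LPS stimulation were exposed to test chemical for 24 h. VCAM-1 levels were then measured by ELISA, with bidirectional curve fitting relative to DMSO as negative control and baseline.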

[7] = read-out: CD69, CD69 (gene 969); assay: BSK_SAg_CD69: BioMAP Diversity Plus: SAg Assay for CD69 Biomarker Activity (AID 2283089); conditions: actives raise or lower the signal; primary human HUVEC with PBMC;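 note: cell surface CD69 protein quantified by ELISA with fluorescence detection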
How it was run: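 Endothelial/PBMC co-culture; chemical added; 24 h incubation; CD69 ELISA with fluorescence detection; bidirectional fit vs DMSO.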

[8] = read-out: Monocyte Chemoattractant Protein-1 (MCP1), CCL2 (gene 6347); assay: BSK_SAg_MCP1: BioMAP Diversity Plus: SAg Assay for Monocyte Chemoattractant Protein-1 (MCP1) Biomarker Activity (AID 2283090); conditions: actives raise or lower the signal; primary human HUVEC with PBMC
How it was run: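 MCP-1 levels in the endothelial–PBMC SAg co-culture were quantified by ELISA at 24 h post-dosing; both increases and decreases versus DMSO scored. Cytotoxicity monitored by SRB total protein in parallel cultures.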

[9] = read-out: E-selectin (Homo sapiens) (UniProt P16581); assay: BSK_SAg_Eselectin: BioMAP Diversity Plus: SAg Assay for Eselectin Biomarker Activity (AID 2283091); conditions: actives raise or lower the signal; primary human HUVEC with PBMC
How it was run: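 E-selectin ELISA readout at 24 h post-dosing in human umbilical vein endothelial cell/PBMC co-culture; gain or loss of signal fitted relative to DMSO baseline.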

[10] = read-out: Interleukin-8 (IL8), CXCL8 (gene 3576); assay: BSK_SAg_IL8: BioMAP Diversity Plus: SAg Assay for Interleukin-8 (IL8) Biomarker Activity (AID 2283094); conditions: actives raise or lower the signal; primary human HUVEC with PBMC
How it was run: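 Human umbilical vein endothelial cells co-cultured with peripheral blood mononuclear cells; IL-8 measured by ELISA 24 h after chemical dosing. Bidirectional concentration-response fitting used DMSO as negative control and activity baseline.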

[11] = target: human Opioid Receptor Mu (Opiate Mu), OPRM1 (gene 4988) (UniProt P35372); assay: NVS_GPCR_hOpiate_mu: NovaScreen (NVS) G Protein-Coupled Receptor Assay for human Opioid Receptor Mu (Opiate Mu) (AID 2283290; active = hit-call score of the fitted dose curve at least 0.9, where 1 is the maximum;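 note: hits lower bound tracer signal versus DMSO meaning displacement of the ligand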)
How it was run: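 CHO-derived receptor protein, cell-free; radioligand displacement, filtration + scintillation counting, read at 2.5 h. DMSO = negative control/baseline. Primary: 25 uM single conc, duplicate; secondary: concentration series.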

[12] = target: Androgen Receptor/SRC-1 Co-activator, AR (gene 367) (UniProt P10275); assay: OT_AR_ARSRC1_0480: Odyssey Thera (OT) 8-hour HEK293T Protein-Complementation Assay for Androgen Receptor/SRC-1 Co-activator (AID 2283354; active = hit-call score of the fitted dose curve at least 0.9, where 1 is the maximum;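 note: hits raise the complementation signal above DMSO so AC50 marks enhancers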)
How it was run: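 HEK293T cells stably expressing AR and SRC-1 fused to Venus YFP fragments, imaged 8 h after dosing. Complementation fluorescence scored as nuclear/cytoplasmic ratio at 488 nm in at least 400 cells per image; gain fitted versus DMSO.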

[13] = read-out: Alkaline Phosphatase, Placental (ALPP) gene, ALPP (gene 250); assay: LTEA_HepaRG_ALPP: Life Technologies and Expression Analysis (LTEA) Assay for Alkaline Phosphatase, Placental (ALPP) gene using HepaRG (AID 2283468); conditions: actives raise or lower the signal; mRNA level, 48 h
How it was run: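 qRT-PCR readout of ALPP mRNA (Fluidigm TaqMan), normalized to ACTB/GAPDH/POLR2A, after 48 h chemical exposure of HepaRG cells; 8-point half-log series, top 100 uM, 0.5% DMSO vehicle. Bidirectional curve fit versus DMSO baseline.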

[14] = read-out: CYP2E1 (gene 1571); assay: LTEA_HepaRG_CYP2E1: Life Technologies and Expression Analysis (LTEA) Assay for CYP2E1 using HepaRG (AID 2283485); conditions: actives raise or lower the signal; mRNA level, 48 h
How it was run: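 HepaRG cells in serum-free induction medium exposed 48 h to test chemicals, 8 half-log concentrations up to 100 uM in 0.5% DMSO, duplicate. CYP2E1 mRNA by qRT-PCR, normalized to ACTB, GAPDH, POLR2A; bidirectional fit versus DMSO.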

[15] = read-out: Cytochrome P450 3A4 (Homo sapiens) (UniProt P08684); assay: LTEA_HepaRG_CYP3A4: Life Technologies and Expression Analysis (LTEA) Assay for CYP3A4 using HepaRG (AID 2283487); conditions: actives raise or lower the signal; mRNA level, 48 h
How it was run: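 HepaRG, 48 h exposure, 8-pt CRC from 100 uM (half-log), 0.5% DMSO, duplicates; serum-free induction medium. Readout: CYP3A4 mRNA, qRT-PCR, ACTB/GAPDH/POLR2A normalization. Bidirectional fit vs DMSO.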

[16] = read-out: Fatty Acid-Binding Protein 1 (FABP1), FABP1 (gene 2168); assay: LTEA_HepaRG_FABP1: Life Technologies and Expression Analysis (LTEA) Assay for Fatty Acid-Binding Protein 1 (FABP1) using HepaRG (AID 2283494); conditions: actives raise or lower the signal; mRNA level, 48 h
How it was run: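 Differentiated human HepaRG cells exposed 48 h in serum-free induction medium to eight half-log concentrations up to 100 uM (0.5% DMSO), duplicate. FABP1 mRNA by qRT-PCR, normalised to ACTB, GAPDH, POLR2A; bidirectional fitting against DMSO.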

[17] = read-out: Cytochrome P450 7A1 (Homo sapiens) (UniProt P22680); assay: LTEA_HepaRG_CYP7A1: Life Technologies and Expression Analysis (LTEA) Assay for Cytochrome P450 7A1 (CYP7A1) using HepaRG (AID 2283496); conditions: actives raise or lower the signal; mRNA level, 48 h
How it was run: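 Gene expression endpoint in human HepaRG liver cells treated for 48 h with test chemicals (up to 100 uM, 0.5% DMSO). Values come from bidirectional concentration-response fitting versus DMSO.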

[18] = read-out: Keratin 19 (KRT19), KRT19 (gene 3880); assay: LTEA_HepaRG_KRT19: Life Technologies and Expression Analysis (LTEA) Assay for Keratin 19 (KRT19) using HepaRG (AID 2283512); conditions: actives raise or lower the signal; mRNA level, 48 h
How it was run: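 HepaRG, 48 h chemical exposure, 8-pt half-log CRC from 100 uM, 0.5% DMSO vehicle, duplicates. Readout: TaqMan qRT-PCR of KRT19 mRNA, housekeeping-normalized (ACTB/GAPDH/POLR2A). Bidirectional fit vs DMSO baseline.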

[19] = ACEA_AR_antagonist_AUC_viability: ACEA Biosciences xCELLigence Real-Time Cell Analysis on Androgen Receptor Antagonism for Viability (AID 2283776; active = hit-call score of the fitted dose curve at least 0.9, where 1 is the maximum;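 note: 22Rv1 human prostate cancer cells growing on impedance electrode plates; area under impedance growth curve at 80 h after dosing as viability; hits lower the growth signal relative to DMSO meaning cytotoxicity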)
How it was run: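 22Rv1 prostate cells, continuous dosing up to 100 uM final (0.5% DMSO max), duplicate plates. Growth measured by impedance; AUC at 80 h, loss of signal vs DMSO.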

[20] = CPHEA_Stoker_NIS_Cytotoxicity: Cytotoxicity Assessment for CPHEA's Radioactive Iodide Uptake (RAIU) Assay for Sodium/Iodide Symporter (NIS) Inhibition, Stoker and Laws Labs (AID 2283897; active = hit-call score of the fitted dose curve at least 0.9, where 1 is the maximum;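 note: active means loss of ATP signal versus DMSO meaning cytotoxicity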)
How it was run: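 ATP luminescence (Cell Titer Glo) measured viability, with loss of signal normalized to DMSO controls. Cells: hNIS-HEK293T-EPA, seeded 40 hours prior. Dosing: 0.001–100uM, 2 hours, room temperature, uptake buffer pH 7.4.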

[21] = tested on: DIO1 (gene 1733); assay: CCTE_GLTED_hDIO1: CCTE's human Deiodinase 1 (DIO1) Inhibition Assay, Great Lakes Toxicology and Ecology Division (GLTED) Lab (AID 2283987; active = hit-call score of the fitted dose curve at least 0.9, where 1 is the maximum;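 note: isolated human DIO1 enzyme in a cell-free setup rather than cells; enzyme activity read as free iodide liberated from substrate via Sandell-Kolthoff colorimetry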)
How it was run: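 Steps: human DIO1 enzyme plus test chemical, 3 h incubation; free iodide then quantified in a second Sandell-Kolthoff step by absorbance. DMSO served as negative control and baseline.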

[22] = CCTE_Shafer_MEA_acute_network_burst_percentage: CCTE's Neural Acute Assay for Percentage of Network Bursts, Shafer Lab (AID 2284022);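 note: curves fitted for loss so actives lower network burst percentage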
How it was run: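 Rat cortical cultures, DIV 13/15; 20 min equilibration, 40 min baseline, compound 0.03-40 uM, 40 min recording, 37 C. Spikes: 300-5000 Hz band-pass, threshold 8x rms noise. Readout: % change in network-burst spike fraction; loss direction vs DMSO.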

[23] = tested on: DIO3 (gene 1735); assay: CCTE_GLTED_hDIO3: CCTE's human Deiodinase 3 (DIO3) Inhibition Assay, Great Lakes Toxicology and Ecology Division (GLTED) Lab (AID 2284055; active = hit-call score of the fitted dose curve at least 0.9, where 1 is the maximum;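 note: potency is for inhibition seen as loss of released iodide signal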)
How it was run: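 Cell-free assay with human DIO3 enzyme produced by adenovirus expression; enzyme incubated with test chemical for 3 hours. Liberated iodide then measured by Sandell-Kolthoff absorbance; loss of signal versus DMSO baseline indicates inhibition, run in triplicate.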

Measured: AC50

O=C1C2CC=CCC2C(=O)N1SC(Cl)(Cl)C(Cl)Cl (stereo not drawn)
active: [1] 15.7 µM | [2] 12.4 µM | [3] 2.92 µM | [4] 13.9 µM | [5] 17.3 µM | [6] 12.7 µM | [7] 14.6 µM | [8] 12.8 µM | [9] 8.97 µM | [10] 13.4 µM | [11] 1.51 µM | [12] 16.5 µM | [13] 1.99 µM | [14] 29.2 µM | [15] 12.8 µM | [16] 16.8 µM | [17] 19.8 µM | [18] 10.6 µM | [19] 3.11 µM | [20] 38.7 µM | [21] 11.5 µM | [22] 36.9 µM | [23] 50.5 µM
